Molecular target: deleted in colorectal cancer (DCC)
Assay: cell-based or functional assay

Purified mouse netrin-1 (from UniProt O09118 25-604) (ligand)
ERK1/2 phosphorylation in BAECs, 15 minutes (Western blot densitometry): 2.52 fold
eNOSs1179 phosphorylation in BAECs, 30 minutes (Western blot densitometry): 1.7 fold
eNOSs1179 phosphorylation in BAECs, 60 minutes (Western blot densitometry): 1.88 fold
